Patent US11691963B2, “6-heteroaryloxy benzimidazoles and azabenzimidazoles as JAK2 inhibitors” (Ajax Therapeutics, Inc., priority 2020, dated 2023)

Protein sequences, listed by entry. Tags and fused reporters are not part of them. Residues count along the entry.
UniProt O60674, 849-1124 Y1007F/Y1008F: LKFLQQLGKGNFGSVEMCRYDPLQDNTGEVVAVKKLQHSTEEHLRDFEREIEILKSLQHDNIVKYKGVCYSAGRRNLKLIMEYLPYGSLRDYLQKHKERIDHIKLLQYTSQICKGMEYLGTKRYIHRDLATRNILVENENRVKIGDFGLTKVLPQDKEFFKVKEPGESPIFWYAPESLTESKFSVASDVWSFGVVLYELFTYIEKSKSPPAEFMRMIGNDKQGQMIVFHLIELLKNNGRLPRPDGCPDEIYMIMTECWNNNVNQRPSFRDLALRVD

Molecular target: JAK2 (JH1domain-catalytic, Y1007F,Y1008F) kinase (Homo sapiens (Human), UniProt O60674, Y1007F/Y1008F)
Settings: read-out: JAK2 Kd; JAK2 JH1 domain-catalytic, Y1007F,Y1008F; qPCR readout

| Kd | SMILES |
| --- | --- |
| < 10 nM | COC1CN(C(=O)Nc2cc(Oc3cnc4nc(Nc5cc(C(C)(C)C)n([C@H]6CCOC6)n5)n(C)c4c3)ccn2)C1 [Example I-166, (S)—N-(4-((2-((5-(tert-butyl)-1-(tetrahydrofuran-3-yl)-1H-pyrazol-3-yl)amino)-1-methyl-1H-imidazo[4,5-b]pyridin-6-yl)oxy)pyridin-2-yl)-3-methoxyazetidine-1-carboxamide] |
| < 10 nM | COc1c(Oc2ccnc(NC(C)=O)c2)cnc2nc(Nc3cc(C(C)(C)C#N)n([C@@H]4CCOC4)n3)n(C)c12 [Example I-167, (R)—N-(4-((2-((5-(2-cyanopropan-2-yl)-1-(tetrahydrofuran-3-yl)-1H-pyrazol-3-yl)amino)-7-methoxy-1-methyl-1H-imidazo[4,5-b]pyridin-6-yl)oxy)pyridin-2-yl)acetamide] |
| < 10 nM | COc1c(Oc2ccnc(NC(C)=O)c2)cnc2nc(Nc3cc(C(C)(C)C#N)n([C@H]4CCOC4)n3)n(C)c12 [Example I-168, (S)—N-(4-((2-((5-(2-cyanopropan-2-yl)-1-(tetrahydrofuran-3-yl)-1H-pyrazol-3-yl)amino)-7-methoxy-1-methyl-1H-imidazo[4,5-b]pyridin-6-yl)oxy)pyridin-2-yl)acetamide] |
| < 10 nM | COc1c(Oc2ccnc(NC(=O)C3CC3)c2)cnc2nc(Nc3cc(C(C)(C)C)n([C@@H]4CCOC4)n3)n(C)c12 [Example I-170, (R)—N-(4-((2-((5-(tert-butyl)-1-(tetrahydrofuran-3-yl)-1H-pyrazol-3-yl)amino)-7-methoxy-1-methyl-1H-imidazo[4,5-b]pyridin-6-yl)oxy)pyridin-2-yl)cyclopropanecarboxamide] |
| < 10 nM | COc1c(Oc2ccnc(NC(=O)C3CC3)c2)cnc2nc(Nc3cc(C(C)(C)C)n([C@H]4CCOC4)n3)n(C)c12 [Example I-171, (S)—N-(4-((2-((5-(tert-butyl)-1-(tetrahydrofuran-3-yl)-1H-pyrazol-3-yl)amino)-7-methoxy-1-methyl-1H-imidazo[4,5-b]pyridin-6-yl)oxy)pyridin-2-yl)cyclopropanecarboxamide] |
| < 10 nM | COc1c(Oc2ccnc(NC(=O)C3CC3)c2)cnc2nc(Nc3cc(C(F)(F)C(F)(F)F)n([C@@H]4CCOC4)n3)n(C)c12 [Example I-177, (R)—N-(4-((7-methoxy-1-methyl-2-((5-(perfluoroethyl)-1-(tetrahydrofuran-3-yl)-1H-pyrazol-3-yl)amino)-1H-imidazo[4,5-b]pyridin-6-yl)oxy)pyridin-2-yl)cyclopropanecarboxamide] |
| < 10 nM | COc1c(Oc2ccnc(NC(=O)C3CC3)c2)cnc2nc(Nc3cc(C(F)(F)C(F)(F)F)n([C@H]4CCOC4)n3)n(C)c12 [Example I-178, (S)—N-(4-((7-methoxy-1-methyl-2-((5-(perfluoroethyl)-1-(tetrahydrofuran-3-yl)-1H-pyrazol-3-yl)amino)-1H-imidazo[4,5-b]pyridin-6-yl)oxy)pyridin-2-yl)cyclopropanecarboxamide] |
| < 10 nM | Cn1c(Nc2cc(C(C)(C)C)n([C@H]3CCN(CCF)C3)n2)nc2ncc(Oc3ccnc(NC(=O)C4CC4)c3)cc21 [Example I-179, (S)—N-(4-((2-((5-(tert-butyl)-1-(1-(2-fluoroethyl)pyrrolidin-3-yl)-1H-pyrazol-3-yl)amino)-1-methyl-1H-imidazo[4,5-b]pyridin-6-yl)oxy)pyridin-2-yl)cyclopropanecarboxamide] |
| < 10 nM | COCCN1CC[C@H](n2nc(Nc3nc4ncc(Oc5ccnc(NC(=O)C6CC6)c5)c(Cl)c4n3C)cc2C(C)(C)C)C1 [Example I-181, (S)—N-(4-((2-((5-(tert-butyl)-1-(1-(2-methoxyethyl)pyrrolidin-3-yl)-1H-pyrazol-3-yl)amino)-7-chloro-1-methyl-1H-imidazo[4,5-b]pyridin-6-yl)oxy)pyridin-2-yl)cyclopropanecarboxamide] |
| < 10 nM | COc1c(Oc2ccnc(NC(=O)C3CC3)c2)cnc2nc(Nc3cc(C(C)(C)C)n([C@H]4CCN(CCF)C4)n3)n(C)c12 [Example I-183, (S)—N-(4-((2-((5-(tert-butyl)-1-(1-(2-fluoroethyl)pyrrolidin-3-yl)-1H-pyrazol-3-yl)amino)-7-methoxy-1-methyl-1H-imidazo[4,5-b]pyridin-6-yl)oxy)pyridin-2-yl)cyclopropanecarboxamide] |
| < 10 nM | COc1c(Oc2ccnc(NC(=O)C3CC3)c2)cnc2nc(Nc3cc(C(C)(C)C)n([C@@H]4CCN(CCF)C4)n3)n(C)c12 [Example I-184, (R)—N-(4-((2-((5-(tert-butyl)-1-(1-(2-fluoroethyl)pyrrolidin-3-yl)-1H-pyrazol-3-yl)amino)-7-methoxy-1-methyl-1H-imidazo[4,5-b]pyridin-6-yl)oxy)pyridin-2-yl)cyclopropanecarboxamide] |
| < 10 nM | CC(=O)Nc1cc(Oc2cnc3nc(Nc4cc(C(C)(C)C)n([C@H]5CCN(CCF)C5)n4)n(C)c3c2Cl)ccn1 [Example I-185, (S)—N-(4-((2-((5-(tert-butyl)-1-(1-(2-fluoroethyl)pyrrolidin-3-yl)-1H-pyrazol-3-yl)amino)-7-chloro-1-methyl-1H-imidazo[4,5-b]pyridin-6-yl)oxy)pyridin-2-yl)acetamide] |
| < 10 nM | CC(=O)Nc1cc(Oc2cnc3nc(Nc4cc(C(C)(C)C)n([C@@H]5CCN(CCF)C5)n4)n(C)c3c2Cl)ccn1 [Example I-186, (R)—N-(4-((2-((5-(tert-butyl)-1-(1-(2-fluoroethyl)pyrrolidin-3-yl)-1H-pyrazol-3-yl)amino)-7-chloro-1-methyl-1H-imidazo[4,5-b]pyridin-6-yl)oxy)pyridin-2-yl)acetamide] |
| < 10 nM | CC(=O)Nc1cc(Oc2cnc3nc(Nc4cc(C(C)(C)C#N)n(C5CC6(COC6)C5)n4)n(C)c3c2Cl)ccn1 [Example I-192, N-(4-((7-chloro-2-((5-(2-cyanopropan-2-yl)-1-(2-oxaspiro[3.3]heptan-6-yl)-1H-pyrazol-3-yl)amino)-1-methyl-1H-imidazo[4,5-b]pyridin-6-yl)oxy)pyridin-2-yl)acetamide] |
| < 10 nM | CC(=O)Nc1cc(Oc2cnc3nc(Nc4cc(C(C)(C)C)n(C5CC6(COC6)C5)n4)n(C)c3c2Cl)ccn1 [Example I-193, N-(4-((2-((5-(tert-butyl)-1-(2-oxaspiro[3.3]heptan-6-yl)-1H-pyrazol-3-yl)amino)-7-chloro-1-methyl-1H-imidazo[4,5-b]pyridin-6-yl)oxy)pyridin-2-yl)acetamide] |
| < 10 nM | CC(=O)Nc1cc(Oc2cnc3nc(Nc4cc(C(C)(C)C#N)n(C5CC6(COC6)C5)n4)n(C)c3c2C(F)F)ccn1 [Example I-194, N-(4-((2-((5-(2-cyanopropan-2-yl)-1-(2-oxaspiro[3.3]heptan-6-yl)-1H-pyrazol-3-yl)amino)-7-(difluoromethyl)-1-methyl-1H-imidazo[4,5-b]pyridin-6-yl)oxy)pyridin-2-yl)acetamide] |
| < 10 nM | COc1c(Oc2ccnc(NC(=O)C3CC3)c2)cnc2nc(Nc3cc(C(C)(C)C)n(C4CC5(COC5)C4)n3)n(C)c12 [Example I-196, N-(4-((2-((5-(tert-butyl)-1-(2-oxaspiro[3.3]heptan-6-yl)-1H-pyrazol-3-yl)amino)-7-methoxy-1-methyl-1H-imidazo[4,5-b]pyridin-6-yl)oxy)pyridin-2-yl)cyclopropanecarboxamide] |
| < 10 nM | Cn1cc(C2CC2)cc(Nc2nc3ncc(Oc4ccnc(NC(=O)C5CC5)c4)c(Cl)c3n2C)c1=O [Example I-197, N-(4-((7-chloro-2-((5-cyclopropyl-1-methyl-2-oxo-1,2-dihydropyridin-3-yl)amino)-1-methyl-1H-imidazo[4,5-b]pyridin-6-yl)oxy)pyridin-2-yl)cyclopropanecarboxamide] |
| < 10 nM | Cn1cc(C2CC2)cc(Nc2nc3ncc(Oc4ccnc(NC(=O)C5CC5)c4)c(C(F)F)c3n2C)c1=O [Example I-199, N-(4-((2-((5-cyclopropyl-1-methyl-2-oxo-1,2-dihydropyridin-3-yl)amino)-7-(difluoromethyl)-1-methyl-1H-imidazo[4,5-b]pyridin-6-yl)oxy)pyridin-2-yl)cyclopropanecarboxamide] |
| < 10 nM | Cn1c(Nc2cc(C(C)(C)C)n(C3CC(CO)(CO)C3)n2)nc2ncc(Oc3ccnc(NC(=O)C4CC4)c3)cc21 [Example I-200, N-(4-((2-((1-(3,3-bis(hydroxymethyl)cyclobutyl)-5-(tert-butyl)-1H-pyrazol-3-yl)amino)-1-methyl-1H-imidazo[4,5-b]pyridin-6-yl)oxy)pyridin-2-yl)cyclopropanecarboxamide] |
| < 10 nM | COc1c(Oc2ccnc(NC(=O)C3CC3)c2)cnc2nc(Nc3cc(C(F)(F)F)cn(C)c3=O)n(C)c12 [Example I-201, N-(4-((7-methoxy-1-methyl-2-((1-methyl-2-oxo-5-(trifluoromethyl)-1,2-dihydropyridin-3-yl)amino)-1H-imidazo[4,5-b]pyridin-6-yl)oxy)pyridin-2-yl)cyclopropanecarboxamide] |
| < 10 nM | CC(=O)Nc1cc(Oc2cnc3nc(Nc4cc(C5CC5)cn(C)c4=O)n(C)c3c2Cl)ccn1 [Example I-202, N-(4-((7-chloro-2-((5-cyclopropyl-1-methyl-2-oxo-1,2-dihydropyridin-3-yl)amino)-1-methyl-1H-imidazo[4,5-b]pyridin-6-yl)oxy)pyridin-2-yl)acetamide] |
| < 10 nM | CCN1CCN(Cc2ccc(Nc3nc4ncc(Oc5ccnc(NC(C)=O)c5)c(Cl)c4n3C)cc2C(F)(F)F)CC1 [Example I-203, N-(4-((7-chloro-2-((4-((4-ethylpiperazin-1-yl)methyl)-3-(trifluoromethyl)phenyl)amino)-1-methyl-1H-imidazo[4,5-b]pyridin-6-yl)oxy)pyridin-2-yl)acetamide] |
| < 10 nM | CC(=O)Nc1cc(Oc2cnc3nc(Nc4cc(C(F)(F)F)cn(CCCN5CCOCC5)c4=O)n(C)c3c2Cl)ccn1 [Example I-204, N-(4-((7-chloro-1-methyl-2-((1-(3-morpholinopropyl)-2-oxo-5-(trifluoromethyl)-1,2-dihydropyridin-3-yl)amino)-1H-imidazo[4,5-b]pyridin-6-yl)oxy)pyridin-2-yl)acetamide] |
